These are literature values, as cited in patent publication US20150335610A1, “PDK4 INHIBITOR AND USE THEREOF” (priority 2012, published 2015).

Amino acid sequences for entries named in this document (tags omitted).
UniProt Q16654, whole entry, species assumed: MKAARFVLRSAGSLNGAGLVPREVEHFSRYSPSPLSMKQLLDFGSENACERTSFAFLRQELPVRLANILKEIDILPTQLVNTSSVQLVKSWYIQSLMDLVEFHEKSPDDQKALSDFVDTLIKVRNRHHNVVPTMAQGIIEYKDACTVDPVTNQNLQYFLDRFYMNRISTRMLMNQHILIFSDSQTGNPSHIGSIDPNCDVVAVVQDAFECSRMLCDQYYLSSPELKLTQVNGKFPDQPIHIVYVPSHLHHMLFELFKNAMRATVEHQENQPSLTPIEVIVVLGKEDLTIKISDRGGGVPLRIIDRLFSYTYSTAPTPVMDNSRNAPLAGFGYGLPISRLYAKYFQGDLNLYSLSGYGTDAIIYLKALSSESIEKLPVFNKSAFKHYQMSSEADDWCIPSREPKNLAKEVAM

For the data set, the target named is PDK4 (Homo sapiens, UniProt Q16654). The note with it: background art; cited from earlier work.

For the molecule `O=C(O)C(Cl)Cl` [DCA, dichloroacetic acid], the “effect on PDK4 activity (reported)” value is given as “weak inhibitory activity”.
